Biological target: Poly [ADP-ribose] polymerase 1 (Homo sapiens, UniProt P09874)
Assay: Inhibition of human recombinant Poly (ADP-ribose) polymerase 1

By UniProt entry, the sequences of proteins in these tests, tags left out.
UniProt P09874, whole entry: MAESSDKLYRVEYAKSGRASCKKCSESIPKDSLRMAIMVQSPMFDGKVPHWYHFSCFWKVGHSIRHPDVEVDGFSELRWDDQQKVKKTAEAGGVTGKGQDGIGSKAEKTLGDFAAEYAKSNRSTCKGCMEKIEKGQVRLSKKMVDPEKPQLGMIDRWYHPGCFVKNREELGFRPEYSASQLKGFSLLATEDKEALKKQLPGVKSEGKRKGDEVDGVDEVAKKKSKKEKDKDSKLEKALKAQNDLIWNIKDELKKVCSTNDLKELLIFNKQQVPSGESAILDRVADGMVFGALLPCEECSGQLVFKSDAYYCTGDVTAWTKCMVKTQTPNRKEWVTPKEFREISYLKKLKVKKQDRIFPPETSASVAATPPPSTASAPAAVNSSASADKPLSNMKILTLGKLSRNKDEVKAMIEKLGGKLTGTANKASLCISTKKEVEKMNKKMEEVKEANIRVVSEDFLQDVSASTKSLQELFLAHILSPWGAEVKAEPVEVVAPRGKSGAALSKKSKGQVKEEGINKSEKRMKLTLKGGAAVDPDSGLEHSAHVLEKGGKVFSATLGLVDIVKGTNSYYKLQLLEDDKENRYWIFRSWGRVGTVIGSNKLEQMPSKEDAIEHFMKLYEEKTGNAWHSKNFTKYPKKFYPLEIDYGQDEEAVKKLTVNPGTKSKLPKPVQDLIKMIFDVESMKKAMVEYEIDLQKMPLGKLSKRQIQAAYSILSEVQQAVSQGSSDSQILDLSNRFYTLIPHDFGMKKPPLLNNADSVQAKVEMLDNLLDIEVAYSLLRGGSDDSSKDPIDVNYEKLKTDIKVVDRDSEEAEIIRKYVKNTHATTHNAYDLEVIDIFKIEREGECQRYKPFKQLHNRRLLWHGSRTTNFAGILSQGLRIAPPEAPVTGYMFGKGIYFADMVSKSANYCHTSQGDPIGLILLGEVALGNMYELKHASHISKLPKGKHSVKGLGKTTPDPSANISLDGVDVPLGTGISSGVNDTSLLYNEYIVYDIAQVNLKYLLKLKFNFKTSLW

| IC50 [nM] | Compound |
| --- | --- |
| 42 | O=C(CCN1CCCCC1)N1CCc2nc(O)c3ccccc3c2C1 |
| 162 | O=C(CN1CCCCC1)N1CCc2c(nc(O)c3ccccc23)C1 |

| Compound | IC50 [nM] |
| --- | --- |
| O=S(=O)(CCN1CCCCC1)N1CCc2nc(O)c3ccccc3c2C1 | 210 |

Source: ChEMBL document CHEMBL1136129, “Design and synthesis of poly(ADP-ribose)polymerase-1 (PARP-1) inhibitors. Part 3: In vitro evaluation of 1,3,4,5-tetrahydro-benzo[c][1,6]- and [c][1,7]-naphthyridin-6-ones” (Bioorg Med Chem Lett, 2003)
